Earlier results, collected in patent US20090214464A1, “COMPOUNDS FOR FLAVIVIRIDAE TREATMENT” (priority 2004, published 2009).

Tested on: HCV
Conditions: human, in vivo; cited from earlier work

SMILES: NC(=O)c1ncn([C@@H]2O[C@H](CO)[C@@H](O)[C@H]2O)n1 [Ribavirin, 1-β-D-ribofuranosyl-1-1,2,4-triazole-3-caroxamide]
- toxicity: induce anemia
